Source: patent publication US20250025411A1, “READILY SOLUBLE AND THERMOSTABLE GLUCAGON FORMULATIONS AND DELIVERY FOR MINI-DOSING AND CLOSED -LOOP PROPHYLACTIC TREATMENT OF HYPOGLYCEMIA” (Massachusetts Institute of Technology, priority 2023, published 2025)

Assay: High throughput screening of water-soluble solid excipients for glucagon dissolution
Assay type: physicochemical
Conditions: pH 7.4

Row | Substance | Fold change vs. PBS Avg. | Glucagon concentration Avg.
1 | Sodium Benzoate | 1.59 fold | 0.34 mg/mL
2 | Sodium Bisulfite | 0.53 fold | 0.11 mg/mL
3 | Sodium Chlorate | 2.19 fold | 0.47 mg/mL
4 | Sodium Sulfite | 0.16 fold | 0.04 mg/mL
5 | Sodium Thiosulfate | 2.80 fold | –
